Protein sequences, listed by entry. Tags and fused reporters are not part of them. Residues count along the entry.
UniProt P14416, 1-414 isoform 2: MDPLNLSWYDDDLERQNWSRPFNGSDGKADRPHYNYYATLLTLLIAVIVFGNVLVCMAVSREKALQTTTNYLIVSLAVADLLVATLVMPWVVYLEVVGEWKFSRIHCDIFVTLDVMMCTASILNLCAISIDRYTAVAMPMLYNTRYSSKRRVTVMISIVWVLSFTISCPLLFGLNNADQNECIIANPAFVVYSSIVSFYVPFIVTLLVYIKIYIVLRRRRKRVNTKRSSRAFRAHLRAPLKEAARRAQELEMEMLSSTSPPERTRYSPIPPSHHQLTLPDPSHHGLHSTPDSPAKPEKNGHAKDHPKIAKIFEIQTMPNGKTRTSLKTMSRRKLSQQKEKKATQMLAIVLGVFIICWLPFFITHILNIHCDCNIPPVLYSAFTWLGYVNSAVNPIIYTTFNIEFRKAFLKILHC
UniProt P31645, whole entry: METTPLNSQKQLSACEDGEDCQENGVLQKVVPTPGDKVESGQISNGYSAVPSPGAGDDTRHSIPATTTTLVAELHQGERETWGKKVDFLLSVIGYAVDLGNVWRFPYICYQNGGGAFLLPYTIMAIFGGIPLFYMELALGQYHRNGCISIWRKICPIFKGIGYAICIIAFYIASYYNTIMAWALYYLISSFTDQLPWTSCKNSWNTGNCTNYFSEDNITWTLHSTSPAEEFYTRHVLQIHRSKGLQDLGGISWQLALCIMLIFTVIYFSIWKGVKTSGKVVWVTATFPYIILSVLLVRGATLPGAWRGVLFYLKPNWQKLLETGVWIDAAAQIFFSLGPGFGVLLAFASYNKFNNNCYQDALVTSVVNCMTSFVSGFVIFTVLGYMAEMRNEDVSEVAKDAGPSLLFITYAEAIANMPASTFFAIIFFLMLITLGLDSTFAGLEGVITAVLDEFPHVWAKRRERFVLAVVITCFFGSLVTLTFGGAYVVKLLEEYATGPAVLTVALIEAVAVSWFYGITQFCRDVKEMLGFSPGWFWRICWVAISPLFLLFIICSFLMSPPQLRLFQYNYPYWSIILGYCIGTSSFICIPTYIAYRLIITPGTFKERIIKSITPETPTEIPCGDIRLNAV

According to US12331052B2, “Organic compounds” (INTRA-CELLULAR THERAPIES, INC., priority 2018, dated 2025):

Legend:
D2 = D2 (Homo sapiens, UniProt P14416); assay: Receptor binding, D2; conditions: @ 100 nM
SERT = SERT (Homo sapiens, UniProt P31645); assay: Receptor binding, SERT; conditions: @ 100 nM

| Compound | maximum inhibition (D2) | maximum inhibition (SERT) |
| --- | --- | --- |
| O=C1CN2c3c(cccc3[C@@H]3CN(CCCOc4ccc(F)c(O)c4)CC[C@@H]32)N1 | 0% @ |  |
| O=C1CN2c3c(cccc3[C@@H]3CN(CCCOc4ccc(F)cc4O)CC[C@@H]32)N1 |  | 5% @ |
